Assay results reported in US20240218342A1, “SITE-SPECIFIC GLYCAN REMODELING OF LYSOSOMAL ENZYMES AND APPLICATIONS THEREOF” (priority 2021, published 2024).

Target: Recombinant human IGF-II R (CI-MPR) (human) (UniProt P11717)
Test: SPR, CI-MPR immobilised, rhGAA as analyte

- Kd: 14 nM
Substance: Recombinant human acid α-glucosidase (rhGAA, Lumizyme), native (enzyme)
